Data from BindingDB's records for US10577360.

Protein sequences, listed by entry. Tags and fused reporters are not part of them. Residues count along the entry.
UniProt P54289, 25-956 limits assumed: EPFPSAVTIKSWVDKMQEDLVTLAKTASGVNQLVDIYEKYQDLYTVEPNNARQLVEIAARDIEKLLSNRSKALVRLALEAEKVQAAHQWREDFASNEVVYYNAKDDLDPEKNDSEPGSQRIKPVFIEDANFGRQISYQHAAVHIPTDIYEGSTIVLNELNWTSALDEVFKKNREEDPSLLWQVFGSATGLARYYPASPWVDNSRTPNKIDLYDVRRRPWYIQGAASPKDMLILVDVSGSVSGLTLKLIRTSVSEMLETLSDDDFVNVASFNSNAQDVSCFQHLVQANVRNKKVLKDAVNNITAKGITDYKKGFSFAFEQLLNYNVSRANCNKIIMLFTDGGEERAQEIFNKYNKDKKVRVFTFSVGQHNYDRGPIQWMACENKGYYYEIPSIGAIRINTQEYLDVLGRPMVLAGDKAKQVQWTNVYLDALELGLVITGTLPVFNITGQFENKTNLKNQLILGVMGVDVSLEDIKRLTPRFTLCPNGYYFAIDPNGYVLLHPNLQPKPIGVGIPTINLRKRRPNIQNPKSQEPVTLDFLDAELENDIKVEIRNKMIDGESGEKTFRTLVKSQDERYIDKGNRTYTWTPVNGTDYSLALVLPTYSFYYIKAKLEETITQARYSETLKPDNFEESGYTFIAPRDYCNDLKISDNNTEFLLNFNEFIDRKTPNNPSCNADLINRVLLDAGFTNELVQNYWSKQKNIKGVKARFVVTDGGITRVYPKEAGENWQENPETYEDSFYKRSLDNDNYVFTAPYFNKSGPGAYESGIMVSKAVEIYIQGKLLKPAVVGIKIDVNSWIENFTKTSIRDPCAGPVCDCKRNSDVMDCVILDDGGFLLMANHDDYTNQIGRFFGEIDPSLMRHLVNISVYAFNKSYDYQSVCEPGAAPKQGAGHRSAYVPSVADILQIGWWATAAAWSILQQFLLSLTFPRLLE
UniProt P54289, 957-1103 limits assumed: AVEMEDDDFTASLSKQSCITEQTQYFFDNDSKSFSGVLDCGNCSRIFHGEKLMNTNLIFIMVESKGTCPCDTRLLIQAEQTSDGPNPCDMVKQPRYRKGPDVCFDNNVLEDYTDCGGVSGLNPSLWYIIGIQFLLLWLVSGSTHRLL
UniProt P35372, whole entry: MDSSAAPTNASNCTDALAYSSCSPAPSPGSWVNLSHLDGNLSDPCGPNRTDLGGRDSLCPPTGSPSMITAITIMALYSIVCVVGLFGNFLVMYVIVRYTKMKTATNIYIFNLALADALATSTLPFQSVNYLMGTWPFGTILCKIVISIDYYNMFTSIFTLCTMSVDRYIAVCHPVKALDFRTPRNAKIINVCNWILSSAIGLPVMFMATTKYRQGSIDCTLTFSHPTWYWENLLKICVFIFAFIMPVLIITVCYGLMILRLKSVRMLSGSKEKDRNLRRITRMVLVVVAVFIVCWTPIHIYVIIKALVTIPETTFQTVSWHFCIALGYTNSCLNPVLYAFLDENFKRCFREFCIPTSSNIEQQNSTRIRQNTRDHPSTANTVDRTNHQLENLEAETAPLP

What was measured:
[1] = biological target: Voltage-dependent calcium channel subunit alpha-2/delta-1 (Homo sapiens, UniProt P54289)
Mu-type opioid receptor = Mu-type opioid receptor (Homo sapiens, UniProt P35372); test: ASSAY_NAME: Human mu-Opioid Receptor Radioligand Assay DESCRIPTION: To investigate binding properties of test compounds to human μ-opioid receptor, transfected CHO-K1 cell membranes and [3H]-DAMGO (Perkin Elmer, ES-542-C), as the radioligand, were used. The assay was carried out with 20 μg of membrane suspension, 1 nM of [3H]-DAMGO in either absence or presence of either buffer or 10 &#9

Structure (SMILES) | Ki [1] | Ki (Mu-type opioid receptor)
O=C(c1cccs1)N(c1ccn(-c2ccccc2)n1)C1CCNC(Cc2ccccc2)C1 (stereo not drawn) | 2750 nM | 
Cc1nnc(-c2cccc(-n3ccc(N(C(=O)c4cccc(O)c4)C4C[C@@H](C)N[C@@H](C)C4)n3)c2)o1 (stereo partly drawn) | 2750 nM | 
O=C(c1cccs1)N(c1ccn(-c2ccccc2)n1)C1CCNCC1 |  | > 500 nM
